Reference: patent US9505834B2, “Methods for controlling the galactosylation profile of recombinantly-expressed proteins” (AbbVie Inc., priority 2011, dated 2016)

Key:
[1] = system: CHO cell line producing mAb #1; test: Example 7 culture growth & productivity; conditions: 40 μM manganese chloride and galactose at all levels studied
Experimental: (§1) For all studies with CHO cell lines described throughout this invention, samples were collected daily and measured for cell density and viability using a Cedex cell counter. Retention samples for titer analysis via Poros A method were collected by centrifugation at 12,000 RPM for 5 min when the culture viability began declining. The cultures were harvested by collecting 125 mL aliquots and centrifuging at 3,000 RPM for 30 min when culture viability was near or below 50%. All supernatants were stored at −80° C. until analysis.
Growth and production media for the CHO cell line producing mAb #1 were prepared using a proprietary Life Technologies Gibco chemically defined media, GIA-1. […] All media were filtered through Corning 0.5 L or 1 L filter systems (0.22 μm PES) and stored at 4° C. until use.
Upon thaw, cells were expanded for 6 (3 day each) passages in a combination of 250 mL, 500 mL, and 1000 mL Corning vented non-baffled shake flasks. Production cultures were initiated in duplicate 500 mL Corning vented non-baffled shake flasks (200 mL working volume) at an initial VCD of approximately 0.5×10^6 cells/mL. Cultures were maintained on orbital shakers at 125 RPM in a dry incubator at 35° C. and 5% CO2. A glucose solution (1.25% (v/v) of 40% solution) was fed when the media glucose concentration fell below 3 g/L. […]

[2] = system: adalimumab-producing CHO cell line; test: Example 2 culture growth & productivity, HyClone CDM4CHO; conditions: manganese chloride 20 μM or 40 μM
Experimental: as §1
Growth and production media for the adalimumab-producing CHO cell line were prepared using Thermo Scientific HyClone chemically defined media CDM4CHO without L-glutamine (Catalogue #SH30558.02). […] All media were filtered through Corning 0.5 L or 1 L (0.22 μm PES) filter systems and stored at 4° C. until use.
Upon thaw, cells were adapted to and expanded in HyClone CDM4CHO media for 5 (2 to 3 day each) passages in a combination of 250 mL, 500 mL, and 1000 mL Corning vented non-baffled shake flasks. Production cultures were initiated in duplicate 500 mL Corning vented non-baffled shake flasks (200 mL working volume) at an initial VCD of approximately 0.5×10^6 cells/mL. Cultures were maintained on orbital shakers at 110 RPM in a dry incubator at 35° C. and 5% CO2. […]

[3] = system: adalimumab-producing CHO cell line; test: Example 1 culture growth & productivity, batch shake flasks; assay type: cell-based, Chinese Hamster; conditions: production IVGN CDM GIA-1
Experimental: All supernatants were stored at −80° C. until analysis. […] Culture growth, productivity, and product quality data for control cultures is the average of the 3 experiments.

[4] = system: adalimumab-producing CHO cell line; conditions: some cultures with 20 μM or 40 μM manganese chloride
Experimental: as §1
All media were filtered through Corning 0.5 L or 1 L filter systems (0.22 μm PES) and stored at 4° C. until use.
Production cultures were initiated in duplicate 500 mL Corning vented non-baffled shake flasks (200 mL working volume) at an initial VCD of approximately 0.5×10^6 cells/mL. Cultures were maintained on orbital shakers at 110 RPM in a dry incubator at 35° C. and 5% CO2. A glucose solution (1.25% (v/v) of 40% solution) was fed when the media glucose concentration fell below 3 g/L.

Q: Which culture growth [1] does the source give for “Manganese (II) Chloride [manganese chloride]” here?
A: Its culture growth is “slower growth and decreased peak VCD compared to the control”.

Q: And the culture growth [2]?
A: The culture growth was “slowed down culture growth”.

Q: And the “manganese concentration at which growth inhibition was observed” value [3]?
A: Its value is “about 100 μM”.

Q: What about the viability [4] of the same substance?
A: Its viability is “decreased viability by day 3 of production culture, but recovered”.
